# Measurements published in PubChem BioAssay AID488899 (Broad Institute, 2010).
# This is a selection; strong and weak results do not stand in their true shares. The source made the active and inactive calls.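 Rule for the calls: active = mean inhibition across replicates of 60% or more, whatever share of single replicates reaches that level; inconclusive = some that reach 60%, reason not given; inactive = mean inhibition across replicates below 60%.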
# Test: inhibitors of MITF-dependent TRPM1 promoter reporter, primary screen, cell-based, SK-MEL-5, single point, luciferase (AID 488899)
# Conditions: SK-MEL-5 TRPM1 promoter luciferase, 24 h; at 12.5 µM; hits give high values
row,Compound,inhibition
1,CCCOc1ccc(NP(C)(=O)Oc2ccc(Cl)cc2)cc1 (stereo unspecified),inactive: 2.38%
